US6780891B2, “Tramadol analogs and uses thereof” (Sepracor Inc., priority 2001, dated 2004)
Several values for one entry are separate records, joined by “and”; a condition that tells them apart may be missing. Equal entries are not always repeated.

Amino acid sequences for entries named in this document (tags omitted).
UniProt P33535, whole entry: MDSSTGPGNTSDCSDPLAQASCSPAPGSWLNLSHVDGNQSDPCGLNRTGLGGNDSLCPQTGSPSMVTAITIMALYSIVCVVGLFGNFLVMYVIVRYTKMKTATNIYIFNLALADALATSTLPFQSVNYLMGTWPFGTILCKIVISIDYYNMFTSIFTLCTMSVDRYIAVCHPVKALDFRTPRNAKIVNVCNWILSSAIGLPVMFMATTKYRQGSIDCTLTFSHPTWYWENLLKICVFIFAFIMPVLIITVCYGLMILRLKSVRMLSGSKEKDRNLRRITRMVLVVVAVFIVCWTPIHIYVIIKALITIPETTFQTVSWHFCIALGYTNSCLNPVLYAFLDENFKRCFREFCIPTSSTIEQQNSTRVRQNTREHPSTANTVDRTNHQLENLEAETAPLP

Target: μ receptor (Rattus norvegicus, UniProt P33535)
Test: biochemical
Settings: IC50, opioid binding, rat cerebral cortex, [3H]DAMGO 1 nM, 60 minutes/22° C.

C[C@@H](NC(=O)[C@@H](N)Cc1ccc(O)cc1)C(=O)NCC(=O)N(C)[C@@H](Cc1ccccc1)C(=O)NCCO [DAMGO, reference compound]
IC50: 2.1 nM and 4.4 nM
